Reference: ChEMBL document CHEMBL1136931, “Discovery of low nanomolar and subnanomolar inhibitors of the mycobacterial beta-carbonic anhydrases Rv1284 and Rv3273” (J Med Chem, 2009)

Target: T1, PROBABLE TRANSMEMBRANE CARBONIC ANHYDRASE (CARBONATE DEHYDRATASE) (CARBONIC DEHYDRATASE) (Mycobacterium tuberculosis, UniProt P96878)
T1 sequence (P96878 whole entry): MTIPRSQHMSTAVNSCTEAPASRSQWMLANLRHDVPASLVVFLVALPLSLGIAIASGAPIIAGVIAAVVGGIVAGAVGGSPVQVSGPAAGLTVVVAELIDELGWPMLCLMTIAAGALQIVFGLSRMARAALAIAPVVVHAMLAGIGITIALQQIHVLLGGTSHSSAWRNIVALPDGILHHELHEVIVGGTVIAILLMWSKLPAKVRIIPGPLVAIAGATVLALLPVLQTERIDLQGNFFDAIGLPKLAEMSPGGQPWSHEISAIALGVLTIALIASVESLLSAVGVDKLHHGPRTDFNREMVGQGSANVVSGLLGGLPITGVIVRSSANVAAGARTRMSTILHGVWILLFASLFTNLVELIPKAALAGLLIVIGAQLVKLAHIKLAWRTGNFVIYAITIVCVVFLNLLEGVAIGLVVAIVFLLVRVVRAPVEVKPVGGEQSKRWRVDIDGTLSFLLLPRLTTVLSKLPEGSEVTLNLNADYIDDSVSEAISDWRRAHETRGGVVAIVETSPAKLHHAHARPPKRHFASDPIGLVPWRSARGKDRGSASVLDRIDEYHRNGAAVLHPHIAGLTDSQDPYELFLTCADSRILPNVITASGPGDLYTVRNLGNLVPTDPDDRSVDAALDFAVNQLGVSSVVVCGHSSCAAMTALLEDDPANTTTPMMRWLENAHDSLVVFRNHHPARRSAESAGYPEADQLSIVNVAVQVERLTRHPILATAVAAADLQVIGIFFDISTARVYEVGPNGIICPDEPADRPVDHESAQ

Nc1ccc(S(N)(=O)=O)cc1Br
Ki: 40 nM
